The values below come from patent US20240124408A1 (Sanofi, priority 2020, published 2024).

Protein sequences, listed by entry. Tags and fused reporters are not part of them. Residues count along the entry.
UniProt Q7Z2W7, whole entry: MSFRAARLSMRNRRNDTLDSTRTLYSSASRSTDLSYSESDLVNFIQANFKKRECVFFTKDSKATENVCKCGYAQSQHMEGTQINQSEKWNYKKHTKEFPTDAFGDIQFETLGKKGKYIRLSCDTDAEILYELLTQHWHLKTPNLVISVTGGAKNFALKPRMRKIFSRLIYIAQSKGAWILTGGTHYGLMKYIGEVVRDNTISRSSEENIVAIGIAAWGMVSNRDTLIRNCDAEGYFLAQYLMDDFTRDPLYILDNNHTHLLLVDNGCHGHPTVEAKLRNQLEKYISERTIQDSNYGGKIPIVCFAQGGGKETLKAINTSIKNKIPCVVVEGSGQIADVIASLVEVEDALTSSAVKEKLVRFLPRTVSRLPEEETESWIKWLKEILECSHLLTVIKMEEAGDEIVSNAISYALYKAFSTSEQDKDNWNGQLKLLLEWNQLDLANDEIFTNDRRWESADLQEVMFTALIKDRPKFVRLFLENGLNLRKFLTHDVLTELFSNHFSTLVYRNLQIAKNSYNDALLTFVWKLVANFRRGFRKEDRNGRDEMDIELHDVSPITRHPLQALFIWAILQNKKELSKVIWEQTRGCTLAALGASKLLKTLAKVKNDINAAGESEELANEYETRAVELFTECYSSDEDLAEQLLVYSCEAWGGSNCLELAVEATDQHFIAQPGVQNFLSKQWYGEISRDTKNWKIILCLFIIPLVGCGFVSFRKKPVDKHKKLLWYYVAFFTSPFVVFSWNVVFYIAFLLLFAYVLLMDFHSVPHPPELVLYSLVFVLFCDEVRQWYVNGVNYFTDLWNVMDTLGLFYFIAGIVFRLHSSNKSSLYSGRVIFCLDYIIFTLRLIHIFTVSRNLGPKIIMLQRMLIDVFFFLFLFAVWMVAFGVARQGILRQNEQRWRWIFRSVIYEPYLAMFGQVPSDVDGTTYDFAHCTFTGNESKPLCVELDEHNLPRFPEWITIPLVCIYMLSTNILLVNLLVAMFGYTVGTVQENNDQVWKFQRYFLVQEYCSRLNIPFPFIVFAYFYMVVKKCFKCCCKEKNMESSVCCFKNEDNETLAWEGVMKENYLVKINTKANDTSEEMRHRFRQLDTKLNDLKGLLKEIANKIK
UniProt F1SM15, 1-1104: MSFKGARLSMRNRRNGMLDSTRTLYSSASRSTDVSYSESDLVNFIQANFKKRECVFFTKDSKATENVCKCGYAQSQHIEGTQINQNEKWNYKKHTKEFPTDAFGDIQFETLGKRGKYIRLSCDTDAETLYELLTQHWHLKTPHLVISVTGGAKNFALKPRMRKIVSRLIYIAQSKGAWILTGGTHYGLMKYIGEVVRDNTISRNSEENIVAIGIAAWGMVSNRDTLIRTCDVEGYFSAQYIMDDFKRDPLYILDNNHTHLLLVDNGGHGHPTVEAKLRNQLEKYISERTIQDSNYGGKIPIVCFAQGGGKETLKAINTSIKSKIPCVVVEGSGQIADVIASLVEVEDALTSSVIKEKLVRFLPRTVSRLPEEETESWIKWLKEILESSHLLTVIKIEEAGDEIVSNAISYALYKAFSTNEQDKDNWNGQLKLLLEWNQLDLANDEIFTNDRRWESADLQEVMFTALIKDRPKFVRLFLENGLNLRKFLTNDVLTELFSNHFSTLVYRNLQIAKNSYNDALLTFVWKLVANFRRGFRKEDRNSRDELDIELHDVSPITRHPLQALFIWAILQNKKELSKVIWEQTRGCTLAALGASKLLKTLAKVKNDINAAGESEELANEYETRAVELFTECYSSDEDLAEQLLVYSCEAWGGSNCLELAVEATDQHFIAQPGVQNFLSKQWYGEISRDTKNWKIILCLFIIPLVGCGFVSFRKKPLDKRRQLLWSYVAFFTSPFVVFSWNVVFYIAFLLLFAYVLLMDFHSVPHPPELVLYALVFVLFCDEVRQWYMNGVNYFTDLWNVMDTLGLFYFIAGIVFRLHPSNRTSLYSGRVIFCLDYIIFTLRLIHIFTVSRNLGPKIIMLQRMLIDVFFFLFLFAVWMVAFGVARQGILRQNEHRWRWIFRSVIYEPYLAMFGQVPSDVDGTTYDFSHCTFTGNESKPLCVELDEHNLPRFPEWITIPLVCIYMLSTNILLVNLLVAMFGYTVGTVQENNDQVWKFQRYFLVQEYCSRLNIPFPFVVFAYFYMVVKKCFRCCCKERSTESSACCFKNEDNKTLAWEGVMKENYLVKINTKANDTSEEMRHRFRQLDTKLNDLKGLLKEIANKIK

One assay addresses human TRPM8 (Homo sapiens, UniProt Q7Z2W7). In words: In vitro human TRPM8 fluorescence calcium flux assay (recombinant CHO cells, Fluo4-AM, FDSS6000). The conditions noted are these: read-out: Human TRPM8 Calcium Flux EC50; recombinant CHO cells expressing human TRPM8; menthol-related EC50, normalized to 100 μM menthol. The method, then: (§1) In Vitro Pig and Human TRPM8 Fluorescence Calcium Flux Assays
(§2) For functional expression of TRPM8, the full-length cDNA encoding human (NM_024080) and pig (XM_001927892.1) TRPM8 sequences were subcloned into p658 and pcDNA5/FRT/TO mammalian expression vectors, respectively. Engineered recombinant CHO cell lines expressing human or pig TRPM8 were generated. Culture media was Ham-F12 with 10% FCS for both lines, and for the pig cell line only 400 μg/ml hygromycin B and 30 μg/mL blasticidin were added as selection antibiotics (all reagents were obtained from Invitrogen, Fisher Scientific). […]
(§3) For calcium flux assays, cells were plated into clear base poly-D-lysine coated 384-well plates (BD Biosciences, NJ USA) at a density of 15,000 cells per well in appropriate culture medium and grown overnight. […] Following incubation, plates were inserted into a FDSS6000 instrument (Hamamatsu, Photonics, Japan) instrument, where cells were challenged with compounds of the formula (at varying concentrations) and intracellular calcium was measured kinetically for 3 min after addition.
(§4) This protocol allowed the determination of an EC50 value, from the sixteen-point dose response data, for each compound of the formula tested. […] The dose response curves from the average of wells for each data point were analyzed by using nonlinear regression of sigmoidal dose response (formula 205). […]

Another assay concerns the target pig TRPM8 (Sus scrofa, UniProt F1SM15). In words: In vitro pig TRPM8 fluorescence calcium flux assay (recombinant CHO cells, Fluo4-AM, FDSS6000). The conditions noted are these: read-out: Pig TRPM8 Calcium Flux EC50; recombinant CHO cells expressing pig TRPM8; menthol-related EC50, normalized to 100 μM menthol. The protocol:
as §1, §2, §3, §4

On to `CC(C)[C@@H]1CC[C@@H](C)C[C@@]1(O)C(=O)NCCc1cccc(CC(=O)O)c1`, for which the EC50 (usually the midpoint of the concentration-response curve) on human TRPM8 is 575 nM; on pig TRPM8 it was 327 nM.
